The entries are a selection whose mix differs from that of the whole data set. Active and inactive are the calls of the source.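 The calls were made as follows: active = calcium response below the same-plate mean of wells given acetylcholine alone at its 80%-effect dose, minus 3 SD; inactive = the rest.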

Sequences of proteins named here, by UniProt entry; tags and fusion partners are left off.
UniProt P08482, whole entry: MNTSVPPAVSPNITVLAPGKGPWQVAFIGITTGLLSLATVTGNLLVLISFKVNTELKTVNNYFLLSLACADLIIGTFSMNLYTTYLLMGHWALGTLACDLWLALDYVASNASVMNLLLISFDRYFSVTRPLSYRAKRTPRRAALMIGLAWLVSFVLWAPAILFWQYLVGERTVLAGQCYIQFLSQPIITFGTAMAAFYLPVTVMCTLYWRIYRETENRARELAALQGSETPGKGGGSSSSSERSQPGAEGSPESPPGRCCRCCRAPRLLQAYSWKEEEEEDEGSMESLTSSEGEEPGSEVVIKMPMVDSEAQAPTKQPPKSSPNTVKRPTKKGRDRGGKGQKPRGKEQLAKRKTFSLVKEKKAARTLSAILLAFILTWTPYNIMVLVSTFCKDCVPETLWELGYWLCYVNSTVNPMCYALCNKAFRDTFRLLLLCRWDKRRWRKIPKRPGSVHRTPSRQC

This test has as its target Muscarinic acetylcholine receptor M1 (Rattus norvegicus) (UniProt P08482). The test is described as follows: blockers of ACh-evoked M1 calcium signal – CHO cells, Fluo-4 calcium, duplicate, confirmation (AID 677).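 Also: raw fluorescence intensity difference in arbitrary instrument units and not normalized.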 The note with it: ACh EC80 antagonism, at 10 µM, stronger effect = lower value.
For the compound `O=C(OC1CN2CCC1CC2)c1cccc(Cl)c1` (stereo not drawn), the calcium response (max-min fluorescence) is active: 53. The value for `O=C(OC1CN2CCC1CC2)C12CC3CC(CC(C3)C1)C2` (stereo not drawn) was active: 21.4; that for `O=C(COc1ccccc1)OC1CN2CCC1CC2` (stereo not drawn) was active: 81.5.

Source of the values: PubChem BioAssay AID677 (Vanderbilt High Throughput Screening Facility, 2007).
